From patent US20220306603A1, “TARGETING DNA REPAIR IN TUMOR CELLS VIA INHIBITION OF ERCC1-XPF” (The Governors of the University of Alberta, priority 2019, published 2022) come the findings set out here.

Chains of the proteins cited; added tags and fusions are not shown.
UniProt Q92889, whole entry: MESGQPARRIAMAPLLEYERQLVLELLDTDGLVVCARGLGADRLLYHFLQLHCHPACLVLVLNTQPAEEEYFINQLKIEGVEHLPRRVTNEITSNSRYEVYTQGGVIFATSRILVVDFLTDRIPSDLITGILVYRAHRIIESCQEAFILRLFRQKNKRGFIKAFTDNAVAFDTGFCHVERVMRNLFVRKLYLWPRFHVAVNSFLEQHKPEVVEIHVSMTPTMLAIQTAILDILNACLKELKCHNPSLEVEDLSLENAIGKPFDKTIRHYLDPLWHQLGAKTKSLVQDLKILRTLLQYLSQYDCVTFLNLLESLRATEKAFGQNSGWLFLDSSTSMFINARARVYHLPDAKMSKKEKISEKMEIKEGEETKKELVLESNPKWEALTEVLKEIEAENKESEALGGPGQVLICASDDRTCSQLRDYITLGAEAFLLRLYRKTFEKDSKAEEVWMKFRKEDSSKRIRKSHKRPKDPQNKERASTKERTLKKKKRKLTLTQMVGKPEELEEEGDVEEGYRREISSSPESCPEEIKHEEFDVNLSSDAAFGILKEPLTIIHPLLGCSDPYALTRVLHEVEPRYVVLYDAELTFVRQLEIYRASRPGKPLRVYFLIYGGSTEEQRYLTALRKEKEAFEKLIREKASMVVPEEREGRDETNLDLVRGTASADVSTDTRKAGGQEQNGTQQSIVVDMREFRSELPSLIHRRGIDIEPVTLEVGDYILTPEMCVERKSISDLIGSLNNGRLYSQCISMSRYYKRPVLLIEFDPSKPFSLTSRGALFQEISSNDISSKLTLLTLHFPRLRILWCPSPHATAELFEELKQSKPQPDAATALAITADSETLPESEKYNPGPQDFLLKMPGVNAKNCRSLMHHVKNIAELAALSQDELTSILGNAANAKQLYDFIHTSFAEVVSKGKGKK

Usually IC50 stands for the point on the concentration scale where inhibition reaches its midpoint.

The structures appear in SMILES notation.

For the assay, the target named is ERCC1-XPF (Homo sapiens, UniProt Q92889). Description: Microplate fluorescence incision assay of ERCC1-XPF endonuclease activity. The format is biochemical. Conditions: Table 7; at least three experiments of Vo versus concentration.

The compound `COc1ccc2nc3cc(Cl)ccc3c(Nc3ccc(O)c(CN4CCN(CCN(C)C)CC4)c3)c2n1` registered an IC50 of 396 nM.
